Test results reported in patent US20240294535A1, “IMIDAZOTRIAZINE THIOBENZAMIDE DERIVATIVE, AND PREPARATION METHOD AND APPLICATION THEREOF” (Yunbaiyao Zhengwu Science and Technology (Shanghai) Co., …, priority 2023, published 2024).

Test system: SPF Kunming mice
Conditions: intragastrically administered

## CNC(=S)c1ccc(-c2cnc3ncc(C(=O)c4ccc5ncccc5c4)n3n2)cc1F [Compound 22]
  LD50: 289 mg/kg
